# From US8865714B2, “Piperazine compound capable of inhibiting prostaglandin D synthase” (Taiho Pharmaceutical Co., Ltd., priority 2009, dated 2014)
# Chains of the proteins cited; added tags and fusions are not shown. Lines headed by an entry give the natural chain unless they say otherwise; changes in a name come on top.
# UniProt O60760: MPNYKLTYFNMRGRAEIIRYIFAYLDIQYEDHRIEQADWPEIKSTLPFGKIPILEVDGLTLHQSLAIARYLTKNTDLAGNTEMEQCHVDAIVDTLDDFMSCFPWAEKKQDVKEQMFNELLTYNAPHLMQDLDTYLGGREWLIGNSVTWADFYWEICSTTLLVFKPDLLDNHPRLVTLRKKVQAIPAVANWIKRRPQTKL
# Molecular target: human H-PGDS (Homo sapiens (Human), UniProt O60760)
# Test: Hematopoietic prostaglandin D synthase (H-PGDS) inhibiting action
# Assay type: biochemical
# Details: [14C] prostaglandin H2 10 μM; for H-PGDS inhibition rate (%): compound at 0.1 μM, relative to the control group
# Description: More specifically, the reaction mixture (49 μL) containing 100 mM Tris-HCl (pH 8.0), 1 mM reduced glutathione, 0.1 mg/mL γ-globulin, and human H-PGDS (q.s.), and a compound (final concentration: 0.01-100 μM) was preincubated at 25° C. for 5 minutes. Note that a DMSO solution (final concentration: 1%) was added to the solvent control group. Subsequently, 1 μL of [14C] prostaglandin H2 (final concentration: 10 μM) was added to start the reaction. One minute after the start of the reaction, 250 μL of a reaction stopper solution (diethylether/methanol/1 M citric acid (30/4/1) at a temperature of −20° C. was added to stop the reaction. After the reaction was stopped, 50 μL of the upper layer portion (organic solvent phase) was applied to a TLC plate and developed at −20° C. for 45 minutes (developing solvent: diethylether/methanol/acetic acid (90/2/1)). After drying the TLC plate, the TLC plate was exposed to an imaging plate for 1 to 24 hours, and the radioactivity corresponding to prostaglandin D2 (PGD2) was analyzed using an image analyzer (produced by Fujifilm Corporation).
Substance,IC50 [µM],H-PGDS inhibition rate (%)
"4-((3,5-dimethylpyrrol-2-yl)-carbonyl)-N-(4-(4-morpholin-1-yl-carbonylpiperidin-1-yl)-phenyl)-1-piperazinecarboxamide [Reference Example 2]",> 1,3.9
4-((pyrrol-2-yl)-carbonyl)-N-(4-(4-morpholin-1-yl-carbonylpiperidin-1-yl)-phenyl)-1-piperazinecarboxamide [Reference Example 1],> 1,2.4
